These results are taken from the supplement of paper PMC10290057.

The test has as its system HCT116. The test is described as follows: efficacy (fitted maximal change in viability relative to DMSO control); higher = less cytotoxic (negative = loss of viability). To be noted: 48 h.
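Note: Luminescence-based viability readout, five doses per compound, normalized against on-plate DMSO and empty-well controls, followed by dose-response curve fitting for every drug.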

In turn, `NCc1ccc(OCCCc2sc(-c3ccc4c(c3)/C(=N/Nc3nc5ccccc5s3)CCC4)nc2C(=O)O)cc1` [WEHI-539] returned an efficacy of 9.49%.
